Experimental data: US20260248920A1, “COMPOSITION FOR PREVENTING OR TREATING INFLAMMATORY DISEASES, CONTAINING POLY(ORGANOPHOSPHAZENE) POLYMER” (KOREA INSTITUTE OF SCIENCE AND TECHNOLOGY, priority 2022, published 2026)

Test system: pro-inflammatory cytokines COX-2, IL-1, IL-6, MMP-3, MMP-13, TNF-α
Assay: RT-PCR of blood in defective Achilles tendon model: pro-inflammatory cytokines
Type: in vivo, mice
Details: 4 weeks after injection

## Cc1ccc(-c2cc(C(F)(F)F)nn2-c2ccc(S(N)(=O)=O)cc2)cc1 [CXB, Celecoxib]
  COX-2 expression increase compared to control group: 6.3 fold
  IL-1 expression increase compared to control group: 5.4 fold
  IL-6 expression increase compared to control group: 6.0 fold
  MMP-3 expression increase compared to control group: 5.9 fold
  MMP-13 expression increase compared to control group: 7.2 fold
  TNF-α expression increase compared to control group: 6.7 fold
